For 1 compound, Ki results are on record in ChEMBL document CHEMBL1124304 (J Med Chem, 1988).

Chains of the proteins cited; added tags and fusions are not shown.
UniProt P25099, whole entry: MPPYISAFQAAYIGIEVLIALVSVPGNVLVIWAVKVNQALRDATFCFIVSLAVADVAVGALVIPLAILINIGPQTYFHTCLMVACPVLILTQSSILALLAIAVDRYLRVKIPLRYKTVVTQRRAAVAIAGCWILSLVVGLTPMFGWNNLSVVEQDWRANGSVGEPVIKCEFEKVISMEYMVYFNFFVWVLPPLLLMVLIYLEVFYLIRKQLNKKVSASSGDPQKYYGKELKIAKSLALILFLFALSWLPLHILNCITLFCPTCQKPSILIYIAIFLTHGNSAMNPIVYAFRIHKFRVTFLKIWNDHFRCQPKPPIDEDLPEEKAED

The Ki is a dissociation constant, usually derived from enzyme kinetics or from competition with a known ligand. Low values mean tighter binding, high ones weaker binding.

The target of this experiment is Adenosine receptor A1 (Rattus norvegicus, UniProt P25099).

Compound `OC[C@H]1O[C@@H](n2cnc3c(NCC4c5ccccc5-c5ccccc54)ncnc32)[C@H](O)[C@@H]1O` came in with a Ki of 5.1 nM.
